Source: ChEMBL document CHEMBL1156157, “1,7-Disubstituted oxyindoles are potent and selective EP(3) receptor antagonists” (Bioorg Med Chem Lett, 2010)

How the values were obtained:
[1] = organism: Homo sapiens; experiment: Selectivity ratio of IC50 for human EP3 receptor to IC50 for human IP receptor
[2] = organism: Homo sapiens; experiment: Selectivity ratio if IC50 for human EP3 receptor to IC50 for human FP receptor
[3] = organism: Homo sapiens; experiment: Selectivity ratio of IC50 for human EP3 receptor to IC50 for human EP1 receptor
[4] = organism: Homo sapiens; experiment: Selectivity ratio of IC50 for human EP3 receptor to IC50 for human EP2 receptor
[5] = organism: Homo sapiens; experiment: Selectivity ratio of IC50 for human EP3 receptor to IC50 for human EP4 receptor

Measured: Ratio IC50

O=C(/C=C/c1cccc2c1N(Cc1ccc3ccccc3c1)C(=O)C2O)NS(=O)(=O)c1ccc(F)cc1 (stereo not given)
> 1000: all assays above
